Test results as given in patent US9980966B2, “Combinations of cancer therapeutics” (Merck Patent GmbH, priority 2014, dated 2018).

Tested on: Her2+ patient-derived breast model "CTG-0033"
Assay: Patient derived xenograft model of breast cancer, tumor volume efficacy study
Assay type: in vivo, mice
Details: Day 55; Herceptin 30 mg/kg loading dose and 15 mg/kg maintenance dose QW IV
Source text: Female nude (Harlan; nu/nu) between 5-7 weeks were implanted subcutaneously with tumor fragments from the Her2+ patient-derived breast model “CTG-0033” (passage 3, i.e. the model has been serially passaged/grown from the original host 3 times) harvested from host animals. When host tumors reached 1-1.5 cm^3, tumors were harvested for re-implantation into animals to be used for the efficacy study. When the CTG-0033 (passage 4) tumors reached approximately 190 mm^3; animals were randomized by tumor volume into treatment or control groups (n=10) and dosing was initiated on Day 0. Treatments were Vehicle (Saline), Compound A 30 mg/kg QD (daily) PO (per oral), Herceptin (30 mg/kg loading dose and 15 mg/kg maintenance dose) QW (per week) IV (intravenous), and Compound A 30 mg/kg QD PO in combination with Herceptin 15 mg/kg QW IV. Tumor volumes were recorded twice per week. Vehicle treatment group was terminated at Day 55 due to large tumors. The other treatments were stopped at Day 75 and tumors were allowed to grow back for over 2 months with mice receiving no treatment. Two animals died in this study. One animal in the Compound A group died at day 9 due to a suspected gavage error and the other in the Compound A+Herceptin group due to human error.

Herceptin: recombinant DNA-derived humanized monoclonal IgGI kappa antibody that binds to the extracellular domain of the HER2 receptor [reference compound]
% T/C: 37%
